One test deals with T1, Aurora-B (Homo sapiens, UniProt Q96GD4).
T1 construct: in some cases as full-length kinases, in some cases as truncated fragments; purchased Upstate/Millipore #14-835
The test is described as follows: Cell-free kinase assay (ALPHA technology), Aurora-B. The format is biochemical. The following applies: Aurora-B versus the other kinases, in words. The method, then:
Aurora-B assay: […] The kinase reaction was stopped by adding 10 μl of the ALPHA bead mix (10 μg/ml, #6760617/PerkinElmer), pre-incubated with anti-phospho PLK antibody (100 pM, #5070, Cell Signaling), in 25 mM Tris, 200 mM NaCl, 100 mM EDTA and 0.3% BSA, and left to stand overnight. The luminiscence was detected the next morning in a Envision instrument (Perkin Elmer). […] 0% controls contained no ATP whereas the 100% controls contained no test substance. The IC50 values were determined with GraphPadPrism.

Amino acid sequences for entries named in this document (tags omitted). Residues count along the entry.
UniProt Q96GD4, whole entry: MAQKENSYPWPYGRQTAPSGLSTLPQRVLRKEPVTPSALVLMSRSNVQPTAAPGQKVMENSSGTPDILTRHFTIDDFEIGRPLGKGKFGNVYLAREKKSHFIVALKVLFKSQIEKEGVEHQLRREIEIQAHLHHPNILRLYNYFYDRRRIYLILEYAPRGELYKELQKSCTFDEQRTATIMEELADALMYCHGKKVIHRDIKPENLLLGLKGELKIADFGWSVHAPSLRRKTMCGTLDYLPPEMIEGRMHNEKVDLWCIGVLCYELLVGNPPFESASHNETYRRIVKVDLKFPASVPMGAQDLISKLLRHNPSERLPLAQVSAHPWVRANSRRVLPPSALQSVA
UniProt P28482, 2-360: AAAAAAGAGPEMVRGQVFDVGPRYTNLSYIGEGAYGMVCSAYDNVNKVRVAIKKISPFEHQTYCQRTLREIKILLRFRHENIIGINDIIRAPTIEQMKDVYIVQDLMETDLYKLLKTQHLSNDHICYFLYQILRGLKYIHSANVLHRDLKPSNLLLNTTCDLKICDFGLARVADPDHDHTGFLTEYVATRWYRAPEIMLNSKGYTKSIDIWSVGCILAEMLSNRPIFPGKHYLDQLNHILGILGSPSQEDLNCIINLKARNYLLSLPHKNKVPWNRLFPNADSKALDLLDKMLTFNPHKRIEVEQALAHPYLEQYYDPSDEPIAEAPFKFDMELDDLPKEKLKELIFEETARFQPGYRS
UniProt P28482, whole entry: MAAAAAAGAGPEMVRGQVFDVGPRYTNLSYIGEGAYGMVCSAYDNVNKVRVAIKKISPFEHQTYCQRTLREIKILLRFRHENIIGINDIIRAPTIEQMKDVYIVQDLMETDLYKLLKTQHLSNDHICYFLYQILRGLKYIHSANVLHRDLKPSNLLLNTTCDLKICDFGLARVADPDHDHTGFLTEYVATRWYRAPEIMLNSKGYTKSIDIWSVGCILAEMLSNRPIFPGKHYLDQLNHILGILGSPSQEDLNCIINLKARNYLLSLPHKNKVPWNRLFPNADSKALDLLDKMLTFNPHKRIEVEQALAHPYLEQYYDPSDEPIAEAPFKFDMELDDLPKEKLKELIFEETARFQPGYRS

Another test addresses cRaf-Mek1-Erk2 (Homo sapiens, UniProt P04049+P28482+Q02750). The settings on record: read-out: IC50 cRaf-Mek-Erk; at 10 μM ATP. The method, then:
The inhibitory effect of the inventive compounds was tested on various human serine/threonine kinases and tyrosine kinases in enzymatic assays. Recombinant human kinases, for example Aurora-B, cRaf-Mek1-Erk2, Erk2, Pim-1, HIPK1, KDR, TrkA, Yes, c-Abl and others were used, in some cases as full-length kinases, in some cases as truncated fragments—but at least consisting of the functional kinase domains. The commercial kinase proteins (Proqinase, Millipore) were used as recombinant fusion proteins with GST (glutathione S-transferase) tag or His tag. Depending on the substrate type, the different kinase reactions were quantified by suitable ALPHA™ beads (PerkinElmer).
The calculation of % inhibition values per substance concentration was done by means of the following formula from the raw data determined in the Envision reader:
(§1) The controls were determined 16 fold. 0% controls contained no ATP whereas the 100% controls contained no test substance. The IC50 values were determined with GraphPadPrism.

In the next test the target is T2, Erk2 (Homo sapiens, UniProt P28482).
T2 construct: in some cases as full-length kinases, in some cases as truncated fragments
The test is described as follows: Cell-free kinase assay (ALPHA technology), Erk2. The format is biochemical. The settings on record: at 10 μM ATP. The method, then:
Recombinant human kinases, for example Aurora-B, cRaf-Mek1-Erk2, Erk2, Pim-1, HIPK1, KDR, TrkA, Yes, c-Abl and others were used, in some cases as full-length kinases, in some cases as truncated fragments—but at least consisting of the functional kinase domains.
as §1

SMILES strings stand for the structures.

This is an account of results in US8461178B2, “Naphthyridine derivatives and the use thereof as kinase inhibitors” (Aeterna Zentaris GmbH, priority 2009, dated 2013).

What is called IC50 is the point on the concentration scale where inhibition reaches its midpoint.

`Cn1cc(-c2cnc3c(NC(=O)NC4CC4)ccnc3c2)cn1` [Compound 18, 1-Cyclopropyl-3-[7-(1-methyl-1H-pyrazol-4-yl)-[1,5]naphthyridin-4-yl]-urea]: on Aurora-B, the “selectivity against the other kinases” value is on record as “high selectivity”. For the compound `CCNC(=O)Nc1ccc2ncc(-c3ccc(OC)cc3)cc2n1` [Compound 1, 1-Ethyl-3-[7-(4-methoxy-phenyl)-[1,5]naphthyridin-2-yl]urea], the IC50 on cRaf-Mek1-Erk2 stood at 1550 nM; at Erk2, 1130 nM. Regarding `COc1cc(-c2cnc3ccc(NC(=O)NC(C)(C)C)nc3c2)ccc1O` [Compound 4, 1-tert-Butyl-3-[7-(4-hydroxy-3-methoxy-phenyl)-[1,5]naphthyridin-2-yl]-urea], the IC50 amounted to 339 nM on cRaf-Mek1-Erk2 and 702 nM against Erk2. The corresponding values for `Cn1cc(-c2cnc3ccc(NC(=O)NCc4ccccc4)nc3c2)cn1` [Compound 28, 1-Benzyl-3-[7-(1-methyl-1H-pyrazol-4-yl)-[1,5]naphthyridin-2-yl]-urea] are 5 nM and 3 nM. In the case of `CCCNC(=O)Nc1ccnc2cc(-c3cnn(C)c3)cnc12` [Compound 19, 1-[7-(1-Methyl-1H-pyrazol-4-yl)-[1,5]naphthyridin-4-yl]-3-propyl-urea], the “selectivity against the other kinases” value on Aurora-B is recorded as “high selectivity”. The same measure, in the same setting: then `O=C(Nc1ccnc2cc(-c3cnn(CCN4CCOCC4)c3)cnc12)NC1CC1` [Compound 38, 1-Cyclopropyl-3-{7-[1-(2-morpholin-4-yl-ethyl)-1H-pyrazol-4-yl]-[1,5]naphthyridin-4-yl}-urea], with “high selectivity”. As for `CCNC(=O)Nc1ccc2ncc(-c3ccc(OC)c(OC)c3)cc2n1` [Compound 2, 1-[7-(3,4-Dimethoxy-phenyl)-[1,5]naphthyridin-2-yl]-3-ethyl-urea], the IC50 at cRaf-Mek1-Erk2 came to 621 nM; against Erk2 it was 742 nM. Turning to `Cn1cc(-c2cnc3c(NC(=O)NC4CCC4)ccnc3c2)cn1` [Compound 17, 1-Cyclobutyl-3-[7-(1-methyl-1H-pyrazol-4-yl)-[1,5]naphthyridin-4-yl]-urea], the “selectivity against the other kinases” value on Aurora-B is recorded as “high selectivity”. `CCNC(=O)Nc1ccnc2cc(-c3cnn(C)c3)cnc12` [Compound 10, 1-Ethyl-3-[7-(1-methyl-1H-pyrazol-4-yl)-[1,5]naphthyridin-4-yl]-urea]: the “selectivity against the other kinases” value at Aurora-B is “high selectivity”.
